Experimental data: US11524051B2, “Methods of treating fungal infections” (United States of America as represented by the Secretary of …, priority 2017, dated 2022)

Test system: human red blood cells
Experiment: Hemolysis assay
Assay type: cell-based
Conditions: 200 μg/mL, 1 hour at 37° C., normalized to Triton X-100
Description: The hemolytic activity of BmKn2, dBmKn2, Kn2-7, dKn2-7, and melittin was assessed using human red blood cells (RBCs). The RBCs were prepared from human whole blood (BioreclamationIVT, Westbury, N.Y., USA) according to a previous report (Evans et al, J. Vis. Exp. (73), 50166, doi:10.3791/50166 (2013)). In brief, human whole blood was centrifuged, and the RBCs were washed with PBS 3-4 times and then diluted 1:20 of the original volume in PBS. Peptides at various concentrations from 0-400 μg/mL in PBS were mixed with an equal volume of the diluted RBCs in a 96-well microtiter plate and allowed to incubate for 1 hour at 37° C. The plate was then centrifuged at 500 g for 5 minutes and 100 μL of the supernatant was transferred to a 96-well, transparent, flat-bottomed plate. Sample absorbances were read at 490 nm using a BioTek Synergy HT plate reader (BioTek, Winooski, Vt.). PBS was used as a negative control (blank), and 1% Triton X-100 was used as a positive control for 100% hemolysis. The percent hemolysis for the unknown samples was calculated according to the following equation: […]

## CC[C@H](C)[C@H](NC(=O)CN)C(=O)NCC(=O)N[C@@H](C)C(=O)N[C@H](C(=O)N[C@@H](CC(C)C)C(=O)N[C@@H](CCCCN)C(=O)N[C@H](C(=O)N[C@@H](CC(C)C)C(=O)N[C@H](C(=O)N[C@H](C(=O)NCC(=O)N[C@@H](CC(C)C)C(=O)N1CCC[C@H]1C(=O)N[C@@H](C)C(=O)N[C@@H](CC(C)C)C(=O)N[C@H](C(=O)N[C@@H](CO)C(=O)N[C@@H](Cc1c[nH]c2ccccc12)C(=O)N[C@H](C(=O)N[C@@H](CCCCN)C(=O)N[C@@H](CCCNC(=N)N)C(=O)N[C@@H](CCCCN)C(=O)N[C@@H](CCCNC(=N)N)C(=O)N[C@@H](CCC(N)=O)C(=O)N[C@@H](CCC(N)=O)C(N)=O)[C@@H](C)CC)[C@@H](C)CC)[C@@H](C)O)[C@@H](C)O)C(C)C)C(C)C [melittin, reference compound]
  hemolytic rates: ~100%
